This assay addresses Metabotropic glutamate receptor 2 (Homo sapiens, UniProt Q14416). Kind of assay: Antagonistic activity against stimulation of GTP (gamma) 35 S binding by glutamate in membranes from CHO cells expressing human Metabotropic glutamate receptor 2. Format: cell membranes.

The chains behind the UniProt entries cited, without tags or fusion partners. Where a name states a change or a piece, a line headed by the entry shows the natural chain unless it says otherwise.
UniProt Q14416: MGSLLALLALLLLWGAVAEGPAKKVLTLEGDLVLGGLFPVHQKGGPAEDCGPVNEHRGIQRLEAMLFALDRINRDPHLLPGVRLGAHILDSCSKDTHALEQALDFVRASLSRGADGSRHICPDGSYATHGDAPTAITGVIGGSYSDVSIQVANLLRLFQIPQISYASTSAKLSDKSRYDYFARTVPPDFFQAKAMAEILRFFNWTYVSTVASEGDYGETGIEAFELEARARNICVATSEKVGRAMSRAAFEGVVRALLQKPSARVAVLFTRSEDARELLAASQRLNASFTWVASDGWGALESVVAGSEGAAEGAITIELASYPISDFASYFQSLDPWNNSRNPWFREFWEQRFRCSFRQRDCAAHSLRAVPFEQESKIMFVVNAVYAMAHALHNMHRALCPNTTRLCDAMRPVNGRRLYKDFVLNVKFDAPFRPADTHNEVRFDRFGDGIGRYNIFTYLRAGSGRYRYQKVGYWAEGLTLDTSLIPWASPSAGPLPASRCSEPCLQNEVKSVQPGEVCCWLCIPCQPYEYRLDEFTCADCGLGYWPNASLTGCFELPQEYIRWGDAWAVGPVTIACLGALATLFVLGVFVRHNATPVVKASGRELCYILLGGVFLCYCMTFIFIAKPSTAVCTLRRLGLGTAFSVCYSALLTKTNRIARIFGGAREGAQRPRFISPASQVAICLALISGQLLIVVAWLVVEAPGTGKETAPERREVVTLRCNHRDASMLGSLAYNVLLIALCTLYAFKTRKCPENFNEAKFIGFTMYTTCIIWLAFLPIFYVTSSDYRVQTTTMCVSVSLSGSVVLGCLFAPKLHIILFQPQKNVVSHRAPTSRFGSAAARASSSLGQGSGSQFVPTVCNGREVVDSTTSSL

SMILES strings stand for the structures.

Take `NC(C(=O)O)[C@H]1[C@@H](CC2c3ccccc3Oc3ccccc32)[C@@H]1C(=O)O` (stereo partly specified): the IC50 came to 6.4 µM. In other words, the single-digit micromolar range.

For the origin of these results see ChEMBL document CHEMBL1134156, “Design, synthesis and preliminary evaluation of novel 3'-substituted carboxycyclopropylglycines as antagonists at group 2 metabotropic glutamate receptors” (Bioorg Med Chem Lett, 2001).
